Literature values, collected in patent US8338486B2, “Methods for the treatment of CNS-related conditions” (Adamas Pharmaceuticals, Inc., priority 2004, dated 2012).

Conditions: humans; cited from earlier work

## CCN(C)C(=O)Oc1cccc([C@H](C)N(C)C)c1 [EXELON ®/Rivastigmine]
  Human PK T½: 1.5 h
